In publication PMC9503459, “Antifungal Activity, Structural Stability, and Immunomodulatory Effects on Human Immune Cells of Defensin from the Lentil Lens culinaris” (Membranes, 2022):

System: human red blood cells (hRBC)
Assay: Hemolytic assay
Assay type: cell-based
Conditions: 4% hRBC in PBS pH 7.2, 1.5 h, 37 °C, A405
Protocol: Hemolytic activity of Lc-def was studied using 96-well microplates. Fresh human red blood cells (hRBC) were washed three times with ice-cold PBS, pH 7.2. Serial two-fold dilutions of Lc-def and membrane-active peptide melittin from the venom of honeybees as positive control (final concentrations from 0.1 to 100 μM) were then added to hRBC in PBS (final concentration of 4% (v/v)). The suspension was incubated for 1.5 h at 37 °C. After, intact hRBC sedimentation aliquots of the supernatants containing released hemoglobin were transferred to 96-well microplates, and the absorbance at 405 nm was measured. hRBC in PBS or 0.1% Triton X-100 were employed as negative (control0) and positive (control100) controls, respectively. The percentage of hemolysis was calculated as: hemolysis(%) = ((Asample − Acontrol0)/(Acontrol100 − Acontrol0)) × 100%. Experiment was carried out twice in triplicate using the same blood.

With `CC[C@H](C)[C@H](NC(=O)CN)C(=O)NCC(=O)N[C@@H](C)C(=O)N[C@H](C(=O)N[C@@H](CC(C)C)C(=O)N[C@@H](CCCCN)C(=O)N[C@H](C(=O)N[C@@H](CC(C)C)C(=O)N[C@H](C(=O)N[C@H](C(=O)NCC(=O)N[C@@H](CC(C)C)C(=O)N1CCC[C@H]1C(=O)N[C@@H](C)C(=O)N[C@@H](CC(C)C)C(=O)N[C@H](C(=O)N[C@@H](CO)C(=O)N[C@@H](Cc1c[nH]c2ccccc12)C(=O)N[C@H](C(=O)N[C@@H](CCCCN)C(=O)N[C@@H](CCCNC(=N)N)C(=O)N[C@@H](CCCCN)C(=O)N[C@@H](CCCNC(=N)N)C(=O)N[C@@H](CCC(N)=O)C(=O)N[C@@H](CCC(N)=O)C(N)=O)[C@@H](C)CC)[C@@H](C)CC)[C@@H](C)O)[C@@H](C)O)C(C)C)C(C)C` [melittin, reference compound] the “concentration causing 50% hemolysis” value was 1600 nM.
